Results: patent US20230250054A1, “SELECTIVE HISTONE DEACETYLASE 6 INHIBITORS” (The Board of Trustees of the University of Illinois, priority 2020, published 2023)

How the values were obtained:
[1] = tested on: SM1 melanoma tumors; conditions: pre-treatment, SM1 model in C57BL/6 mice, previously demonstrated; cited from earlier work
[2] = tested on: STAT3; assay: IL-6 induced STAT3 phosphorylation in WM164 melanoma cells; conditions: WM164 cells pre-treated with 5 μM, then IL-6 (30 ng/mL) for 20 min, vs IL-6 alone

## CCCCN(Cc1ccc(C(=O)NO)cc1)C(=O)Nc1ccccc1
[1]
  tumor size: significantly decreased tumor size
[2]
  Y705 phosphorylation of STAT3: decreased Y705 phosphorylation of STAT3
